Binding of CDR-mutated scFvs to a peptide of the spike HR2 region

Reference: Li et al. 2023, doi:10.1038/s41467-023-39022-2. File: FLAb, binding data.

Target peptide (SARS-CoV-2 spike, HR2 region): PDVDLGDISGINAS

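Designed CDR sequences, proposed from the first random library and measured here. Their group label is 14L_En_Gibbs (En: ensemble of fine-tuned language models; Gibbs: Gibbs sampling). The assay is AlphaSeq: two haploid yeast populations carry antibody and antigen on their surface. Binding brings cells together so that they mate, and sequencing counts the barcode pairs among the diploids. The ratio of observed to expected reads was calibrated, replicate by replicate, on BCL2-family standards whose Kd was known from biolayer interferometry. The assay was run in six technical replicates.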

Parent: Ab-14, a human scFv built as VH, the linker GGGGSGGGGSGGGGS, VL. Only the CDRs of the light chain vary.
VH: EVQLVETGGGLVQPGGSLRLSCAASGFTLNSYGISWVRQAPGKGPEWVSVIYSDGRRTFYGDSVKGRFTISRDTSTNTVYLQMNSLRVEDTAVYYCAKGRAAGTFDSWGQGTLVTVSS
VL: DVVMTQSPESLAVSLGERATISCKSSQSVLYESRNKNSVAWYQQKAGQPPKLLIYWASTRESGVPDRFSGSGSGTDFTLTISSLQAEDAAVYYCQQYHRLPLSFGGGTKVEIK

The parent's light chain CDRs are KSSQSVLYESRNKNSVA, WASTRES, QQYHRLPLS; each variant's own CDRs replace them letter for letter. Values are log10 of the apparent Kd in nM; lower means stronger binding. A mean of the replicates is given; it leaves out those without a signal. "ND" means that the variant was in the library but no mating with the target was seen in that replicate; the authors take this as a sign of poor binding, and no number exists.

CDR-L1	CDR-L2	CDR-L3	log10 Kd, replicates	mean, log10 nM	signal with controls
KVEYWGDTFHQNDNSIA	HMSMVRD	QQYHRLPLA	1.33 / 1.94 / 0.78 / 1.61 / 2.43 / 2.25	1.72	0 of 18
MITAAPNAYGGNRSNIA	DKEISLN	QQYHHLPLS	0.61 / -0.05 / 0.27 / 0.41 / 0.07 / 0.36	0.28	2 of 18 (2.62)
QFEFTEEEGYQYSNNIA	NGETRFS	QQYVKLPLV	0.47 / 0.23 / 0.12 / 0.46 / 0.15 / 0.22	0.28	0 of 18
SISELYAGWDANNKSIA	ASILQME	QQYHRLPLC	ND / ND / ND / 1.46 / ND / ND	1.46	0 of 18
HVELGVGGVQKYDSSVA	HASQRQE	QQYYQLPLT	0.80 / 0.51 / 0.30 / 0.33 / -0.02 / 0.70	0.44	0 of 18
KMKQSMEGNPKNWNSVA	EVESAKE	QQYARLPLM	ND / ND / ND / ND / ND / ND	ND	0 of 18
KFSQSKEMVNKEGESIA	GSHTIQE	QQYDRLPLA	0.64 / 0.56 / 0.91 / 0.32 / 0.74 / 0.61	0.63	1 of 18 (2.59)
RVQMGDQPGKTARNNIA	DGEEGYR	QQYARLPLT	0.91 / 0.64 / 0.30 / 0.57 / 0.61 / 0.88	0.65	2 of 18 (3.18)
KLDMNELGQSQNKNCVA	DSAQKCS	QQYSRLPLS	0.64 / 0.48 / 0.52 / 0.34 / 0.57 / 0.48	0.50	2 of 18 (2.75)
KLEDSNRWNYRGTNAVA	QASTRAA	QQYQRLPFL	0.09 / -0.04 / 0.08 / 0.04 / 0.14 / 0.15	0.08	0 of 18
KLQNFSQEYNKMWNNIA	DMTMKHT	QQYNRLPLE	0.63 / 0.66 / 0.51 / 0.39 / 0.48 / 0.68	0.56	0 of 18
KLVGPDDNDNQDMRAVA	DVNTLGN	QQYHRLPLD	0.84 / 0.61 / 0.94 / 0.65 / 0.75 / 0.63	0.74	3 of 18 (3.20)
QLPNYRGDGYLQKNNVA	GGTERSH	QQYMRLPLF	0.13 / 0.21 / 0.17 / 0.22 / 0.03 / 0.14	0.15	0 of 18
AIDSHGLGTQEYYNSIA	EESVKVR	QQYDKLPLS	ND / ND / 0.93 / 2.08 / 1.17 / 0.91	1.27	1 of 18 (0.99)
KLFDELSVEQVNARNVA	DALATHE	QQYVMLPLS	0.05 / 0.51 / -0.03 / -0.14 / -0.29 / 0.06	0.03	0 of 18
ALTSDLEVEQVNARNVA	NAHAVVS	QQYQHLPLS	-0.18 / -0.39 / -0.26 / -0.55 / -0.45 / -0.27	-0.35	0 of 18
HITSNMFGTGGVASNVA	ETNTLMV	QQYSKLPLM	0.45 / 0.37 / 0.02 / -0.08 / 0.42 / 0.47	0.27	1 of 18 (2.74)
NLMHHQGRYDVWKESIA	EASIRAS	QQYQRLPLA	0.55 / 0.30 / 0.29 / 0.36 / 0.61 / 0.58	0.45	1 of 18 (1.39)
SLAYTQHFGQTGGKAIA	EVAMRCQ	QQYFRLPLG	ND / 0.46 / 1.35 / 1.45 / 0.80 / 1.61	1.13	0 of 18
AIDSHGLGTQEYYNSIA	EEHVKVR	QQYDKLPLS	ND / 1.61 / 2.14 / 0.99 / 1.72 / 1.16	1.53	1 of 18 (2.20)
KIQDNLGTLMQQINSVA	STEEKSD	QSYMRLPLI	1.32 / 1.83 / 1.39 / 1.31 / 0.92 / 1.66	1.41	0 of 18
KIRVNQYMFSEMESNIA	GTSVRHS	QQYFHLPLT	ND / 1.00 / ND / -0.01 / ND / 0.49	0.49	0 of 18
KVFMELAEDKASTRNIA	DASMHCA	QQYVRLPLG	1.63 / 0.71 / 1.02 / 1.61 / 0.71 / 0.86	1.09	0 of 18
MLQIEPNGYMKMRSNVA	DGSLVRM	QQYARLPLM	1.91 / 1.39 / 1.01 / 1.63 / 1.75 / 1.62	1.55	0 of 18
SLTIYTDENGLKMQSIA	GAGNRML	QQYHRLPLT	0.67 / 1.45 / 0.64 / 0.56 / 0.82 / 1.35	0.91	0 of 18
RLRELNFYSGNARNNIA	DAHIHEV	QQYSQLPLF	0.26 / 0.47 / 0.15 / -0.16 / 0.05 / 0.34	0.18	2 of 18 (2.47)
MITAAMNAYNGSFSSVA	DKAISVN	QQYHRLPLS	ND / 3.10 / 2.26 / ND / 2.77 / ND	2.71	4 of 18 (2.37)
NIRGMVNGKGTTTKNIA	DAEFRAG	QQYSRLPLS	-0.28 / -0.18 / -0.53 / -0.64 / -0.63 / -0.27	-0.42	0 of 18
FLTYAQDQTGLQYNAIA	QVNLKEN	QQYYRLPLA	ND / ND / ND / ND / ND / ND	ND	0 of 18
KMETYSQDNRLTISAIA	EAQTIYQ	QQYARLPLS	ND / ND / ND / ND / ND / ND	ND	0 of 18
SLAYTQHFGQKGGKAVA	EVAMRCQ	QQYFRLPLG	ND / ND / ND / 1.02 / ND / ND	1.02	0 of 18
MIFYGQERDIAHESSIA	NDMARVK	QQYYRLPLS	1.49 / 1.33 / 2.14 / 2.76 / 1.92 / 2.48	2.02	0 of 18
HVHMECAEEKNIKYNIA	DASMRLA	QQYVRLPLG	0.97 / 0.71 / 0.49 / 0.48 / 0.43 / 0.58	0.61	0 of 18
QIAMEMYHGLNDAQNVA	DAMTCEK	QQYSRLPLF	ND / 2.67 / ND / 2.49 / ND / ND	2.58	0 of 18
KLSLFSLHGDLPWSAVA	NEVVRLA	QQYFRLPIH	1.29 / 0.96 / 1.46 / 1.48 / 1.06 / 1.36	1.27	1 of 18 (1.88)
MLDEYQMYDAANLNAIA	DANCTMF	QQYYSLPLS	2.14 / 1.57 / 2.09 / 1.43 / 1.67 / 2.03	1.82	0 of 18
KMHTLMYTANIGENSVA	DANVHVD	QQYFRLPLS	1.27 / 1.06 / 0.45 / 1.06 / 0.81 / 0.91	0.93	1 of 18 (2.22)
HMRMDCSGYQNYGKAIA	HGNMRHN	QQYSRLPFS	1.37 / 1.26 / 2.10 / 0.78 / 1.88 / 1.40	1.47	0 of 18
NLQNLGMENSVWKNAIA	DVNIKES	QQYWRLPLL	0.62 / 0.33 / 0.36 / 0.21 / 0.42 / 0.61	0.42	3 of 18 (2.52)
TLVDWIQGGDWAKKNVA	DEQTRMV	QQYYRLPLS	0.99 / 0.84 / 0.86 / 0.69 / 1.00 / 0.89	0.88	2 of 18 (3.19)
KMKQSIEGNPLNTNSIA	DVDSVTE	QQYARLPLF	0.19 / -0.01 / -0.06 / 0.27 / 0.31 / 0.39	0.18	3 of 18 (2.33)
NMKVGLNFEDIQHQAIA	EVDERES	QQYARLPLT	1.40 / 1.74 / 1.36 / 1.31 / 1.39 / 1.81	1.50	0 of 18
KMSVHLYDAKNRDMSIA	DEELHTM	QQYNRLPFS	2.43 / 2.99 / 2.68 / 1.17 / 2.17 / 2.44	2.31	0 of 18
ALTNEFESVNHHKNNIA	HTSQRCM	QQYATLPLS	0.37 / 0.57 / 0.50 / 0.44 / 0.63 / 0.56	0.51	1 of 18 (2.44)
KLQNFSQEHNGMWNSIA	DMTMKHT	QQYNRLPLV	1.21 / 0.74 / 0.92 / 0.51 / 0.60 / 1.10	0.85	0 of 18
YFSEQYKTDREQQYSIA	GMDIREK	QQYGRLPLT	1.53 / ND / 1.23 / 1.80 / 2.17 / 1.14	1.57	0 of 18
HMQNEWQGNSRAENNVA	ETTVVCD	QQYATLPLQ	0.80 / 0.64 / 1.24 / 1.04 / 0.66 / 1.18	0.93	3 of 18 (2.73)
NLGYQQDGNGLQRQAVA	NVTMKEY	QQYGRLPLM	2.03 / 1.06 / 1.30 / 1.34 / 0.79 / 1.77	1.38	1 of 18 (3.47)
SLTAHEEEKKGAEASVA	EAVMLES	QQYHQLPLM	1.66 / 1.57 / 2.20 / 1.33 / 3.26 / 3.02	2.17	0 of 18

The last 4 entries again:

CDR-L1	CDR-L2	CDR-L3	log10 Kd, replicates	mean, log10 nM	signal with controls
YFSEQYKTDREQQYSIA	GMDIREK	QQYGRLPLT	1.53 / ND / 1.23 / 1.80 / 2.17 / 1.14	1.57	0 of 18
HMQNEWQGNSRAENNVA	ETTVVCD	QQYATLPLQ	0.80 / 0.64 / 1.24 / 1.04 / 0.66 / 1.18	0.93	3 of 18 (2.73)
NLGYQQDGNGLQRQAVA	NVTMKEY	QQYGRLPLM	2.03 / 1.06 / 1.30 / 1.34 / 0.79 / 1.77	1.38	1 of 18 (3.47)
SLTAHEEEKKGAEASVA	EAVMLES	QQYHQLPLM	1.66 / 1.57 / 2.20 / 1.33 / 3.26 / 3.02	2.17	0 of 18

The parent sequence was in this pool as ten entries: three were never detected, three once, and four in most replicates, with averages from 0.34 to 2.37. Values of this round are not directly comparable with the first-round values of the same sequences. In the paper, a design with two or fewer of six values counts as a poor binder. Background: pairings of all light chain designs with three empty control strains gave a value in 4% of cases (median 2.64, 5th percentile 1.59). Values in that range, when seen in few replicates, are hard to tell from nonspecific mating. For each scFv, signals with the empty controls are counted beside the result, with their mean in brackets.